Molecules are shown by their SMILES.

A short description of assay [1]: Selectivity ratio of IC50 for mouse VEGFR2 to IC50 for human VEGFR2.
The species named for assay [2] is Homo sapiens. The experiment in a line: Selectivity ratio of IC50 for human VEGFR2 to IC50 for human VEGFR1.
For assay [3], the species on record is Homo sapiens. The experiment in a line: Selectivity ratio of IC50 for human VEGFR2 to IC50 for human VEGFR3.

Turning to `Nc1nccc(Oc2ccc3c(C(=O)Nc4cccc(C(F)(F)F)c4)cccc3c2)n1`, the Ratio IC50 in assay [1] came to 17.
For the compound `O=C(Nc1cccc(C(F)(F)F)c1)c1cccc2cc(Oc3cc(CO)ncn3)ccc12` [BFH-772], the Ratio IC50 (in the assay listed under Homo sapiens [2]; in the assay filed under Homo sapiens [3]; in assay [1]) was 500 in each case.

For the origin of these results see ChEMBL document CHEMBL5252510, “A Novel Potent Oral Series of VEGFR2 Inhibitors Abrogate Tumor Growth by Inhibiting Angiogenesis” (J Med Chem, 2016).
